Laboratory results reported in US20250195521A1 (Revolution Medicines, Inc., priority 2020, published 2025).
Blank lines part the entries; values can stand above or below the molecule they belong to.

Sequences of proteins named here, by UniProt entry; tags and fusion partners are left off. A change or cut given only in a name is not applied to a line headed by its entry. A line that says so, or that is headed by a name, gives the form on record, which may keep a tag or linker. Residues count along the entry.
UniProt P01116, 1-164 with tags or gaps G12C limits assumed: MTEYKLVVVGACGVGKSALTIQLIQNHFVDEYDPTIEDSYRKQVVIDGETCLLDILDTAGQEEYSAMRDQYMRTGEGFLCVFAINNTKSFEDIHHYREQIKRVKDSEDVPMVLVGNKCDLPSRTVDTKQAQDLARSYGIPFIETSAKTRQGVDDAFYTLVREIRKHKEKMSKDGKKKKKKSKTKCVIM
UniProt P01116, 1-164 with tags or gaps G12S limits assumed: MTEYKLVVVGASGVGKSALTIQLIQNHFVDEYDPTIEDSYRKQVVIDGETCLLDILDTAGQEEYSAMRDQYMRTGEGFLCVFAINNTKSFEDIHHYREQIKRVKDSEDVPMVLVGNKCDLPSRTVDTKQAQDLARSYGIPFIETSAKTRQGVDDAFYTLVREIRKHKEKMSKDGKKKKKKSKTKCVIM
UniProt P01116, 1-164 with tags or gaps G12V limits assumed: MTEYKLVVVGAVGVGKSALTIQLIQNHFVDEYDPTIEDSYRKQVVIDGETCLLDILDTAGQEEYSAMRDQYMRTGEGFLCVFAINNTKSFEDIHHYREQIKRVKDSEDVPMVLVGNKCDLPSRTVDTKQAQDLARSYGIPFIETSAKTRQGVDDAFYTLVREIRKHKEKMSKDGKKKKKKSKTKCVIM
UniProt P01116, 1-164 with tags or gaps G13C limits assumed: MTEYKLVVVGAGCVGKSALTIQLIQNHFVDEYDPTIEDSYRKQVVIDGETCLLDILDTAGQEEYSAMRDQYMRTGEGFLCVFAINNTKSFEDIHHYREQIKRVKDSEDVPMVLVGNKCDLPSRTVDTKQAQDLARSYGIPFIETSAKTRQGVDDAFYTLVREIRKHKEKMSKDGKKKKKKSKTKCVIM
UniProt P01116, 1-164 with tags or gaps G12D limits assumed: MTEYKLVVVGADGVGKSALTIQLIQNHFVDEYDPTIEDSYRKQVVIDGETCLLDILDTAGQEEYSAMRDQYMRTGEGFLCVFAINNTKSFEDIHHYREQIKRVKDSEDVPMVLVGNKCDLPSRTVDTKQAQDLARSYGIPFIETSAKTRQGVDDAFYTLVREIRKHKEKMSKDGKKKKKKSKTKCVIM
UniProt P01116, 1-164 with tags or gaps G13D limits assumed: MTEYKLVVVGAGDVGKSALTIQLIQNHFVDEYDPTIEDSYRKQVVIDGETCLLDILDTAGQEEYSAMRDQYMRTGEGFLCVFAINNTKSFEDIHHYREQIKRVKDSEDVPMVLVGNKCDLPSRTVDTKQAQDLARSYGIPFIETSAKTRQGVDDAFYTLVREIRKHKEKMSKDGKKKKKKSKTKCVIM
UniProt P62937, whole entry, stated change not applied: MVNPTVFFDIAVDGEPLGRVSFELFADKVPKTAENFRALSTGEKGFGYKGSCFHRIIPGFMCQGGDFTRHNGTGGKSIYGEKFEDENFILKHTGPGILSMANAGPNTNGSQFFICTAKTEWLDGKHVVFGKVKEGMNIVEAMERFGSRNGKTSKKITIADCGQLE

How the values were obtained:
KRAS G12V = KRAS G12V (Homo sapiens (Human), UniProt P01116+P62937, G12V); assay: Ras-Raf disruption/FRET/MOA assay, KRAS G12V; type: biochemical; settings: read-out: KRAS G12V FRET IC50
NCI-H358 (K-Ras G12C) = assay: CellTiter-Glo cell viability assay, H358; type: cell-based, human; settings: read-out: H358 Cell Viability IC50, 5-day treatment
KRAS G12D = KRAS G12D (Homo sapiens (Human), UniProt P01116+P62937, G12D); assay: Ras-Raf disruption/FRET/MOA assay, KRAS G12D; type: biochemical; settings: read-out: KRAS G12D FRET IC50
KRAS G13C = KRAS G13C (Homo sapiens (Human), UniProt P01116+P62937, G13C); assay: Ras-Raf disruption/FRET/MOA assay, KRAS G13C; type: biochemical; settings: read-out: KRAS G13C FRET IC50
KRAS G13D = KRAS G13D (Homo sapiens (Human), UniProt P01116+P62937, G13D); assay: Ras-Raf disruption/FRET/MOA assay, KRAS G13D; type: biochemical; settings: read-out: KRAS G13D FRET IC50
KRAS G12S = KRAS G12S (Homo sapiens (Human), UniProt P01116+P62937, G12S); assay: Ras-Raf disruption/FRET/MOA assay, KRAS G12S; type: biochemical; settings: read-out: KRAS G12S FRET IC50
AsPC-1 (K-Ras G12D) = assay: CellTiter-Glo cell viability assay, AsPC-1; type: cell-based, human; settings: read-out: AsPC-1 Cell Viability IC50, 5-day treatment
[1] = system: K-Ras G12C (NCI-H358 cells); assay: Potency assay: pERK in NCI-H358 cells; type: cell-based, human; settings: read-out: pERK EC50 (H358 KRAS G12C); NCI-H358 cells, 4 hours
[2] = molecular target: KRAS G12V binding to BRAF RBD (Homo sapiens (Human), UniProt P01116+P62937, G12V); assay: Ras-Raf disruption/FRET/MOA assay, KRAS G12V; type: biochemical; settings: read-out: KRAS G12V FRET IC50
[3] = molecular target: KRAS G12S binding to BRAF RBD (Homo sapiens (Human), UniProt P01116+P62937, G12S); assay: Ras-Raf disruption/FRET/MOA assay, KRAS G12S; type: biochemical; settings: read-out: KRAS G12S FRET IC50
[4] = molecular target: K-Ras G12C(GMP-PNP) binding to BRAF RBD (Homo sapiens (Human), UniProt P01116+P62937, G12C); assay: Disruption of BRAF RBD interaction with K-Ras (FRET / MOA assay), K-Ras G12C; type: biochemical; settings: read-out: KRAS G12C FRET IC50
[5] = molecular target: KRAS G13C binding to BRAF RBD (Homo sapiens (Human), UniProt P01116+P62937, G13C); assay: Ras-Raf disruption/FRET/MOA assay, KRAS G13C; type: biochemical; settings: read-out: KRAS G13C FRET IC50

Structure (SMILES): CCn1c(-c2cccnc2[C@@H](C)OC)c2c3cc(ccc31)-c1cc(O)cc(c1)C[C@H](NC(=O)[C@H](C(C)C)N(C)C(=O)[C@H]1CCN(C(=O)[C@H]3CN3)C1)C(=O)N1CCC[C@H](N1)C(=O)OCC(C)(C)C2 (atropisomer, axis not shown) [Example 43B]
IC50 (KRAS G12V): 1000 to 10000 nM
IC50 (NCI-H358 (K-Ras G12C)): 10 to 100 nM
IC50 (KRAS G12D): 1000 to 10000 nM
IC50 (KRAS G13C): 1000 to 10000 nM
IC50 (KRAS G13D): 1000 to 10000 nM
IC50 (KRAS G12S): 1000 to 10000 nM
IC50 (AsPC-1 (K-Ras G12D)): > 10000 nM

Structure (SMILES): CCn1c(-c2cccnc2[C@H](C)OC)c2c3cc(ccc31)-c1cc(O)cc(c1)C[C@H](NC(=O)[C@H](C(C)C)N(C)C(=O)[C@H]1CCN(C(=O)[C@H]3CN3)C1)C(=O)N1CCC[C@H](N1)C(=O)OCC(C)(C)C2
IC50 (KRAS G12V): 10 to 100 nM
IC50 (NCI-H358 (K-Ras G12C)): < 10 nM
IC50 (KRAS G12D): 10 to 100 nM
IC50 (KRAS G13C): 10 to 100 nM
IC50 (KRAS G13D): 10 to 100 nM
IC50 (KRAS G12S): 10 to 100 nM
IC50 (AsPC-1 (K-Ras G12D)): 100 to 1000 nM

Structure (SMILES): CO[C@@H](C)c1ncccc1-c1c2c3nc(ccc3n1CC(F)(F)F)-c1cccc(c1)C[C@H](NC(=O)[C@@H](COC1CN(C(=O)C#CC(C)(C)N(C)C)C1)C(C)C)C(=O)N1CCC[C@H](N1)C(=O)OCC(C)(C)C2
EC50 [1]: < 5000 nM

Structure (SMILES): C=CC(=O)N1CC[C@H](C(=O)N(C)[C@H](C(=O)N[C@H]2Cc3cc(O)cc(c3)-c3ccc4c(c3)c(c(-c3ccc(CN(C)C)nc3)n4CC)CC(C)(C)COC(=O)[C@@H]3CCCN(N3)C2=O)C(C)C)C1 [Compound A3]
IC50 [4]: 100 to 1000 nM

Structure (SMILES): CCn1c(-c2ccccc2CN(C)C)c2c3cc(ccc31)-c1cc(O)cc(c1)C[C@H](NC(=O)[C@H](C(C)C)N(C)C(=O)c1ccc(NC(=O)/C=C/CN(C)C)cc1)C(=O)N1CCC[C@H](N1)C(=O)OCC(C)(C)C2
IC50 [4]: 1000 to 10000 nM

Structure (SMILES): CCn1c(-c2cccnc2[C@H](C)OC)c2c3cc(ccc31)-c1cc(O)cc(c1)C[C@H](NC(=O)[C@H](C(C)C)N(C)C(=O)CN(C)C(=O)[C@H]1CN1)C(=O)N1CCC[C@H](N1)C(=O)OCC(C)(C)C2 [42 A]
IC50 (KRAS G12V): 10 to 100 nM
IC50 (NCI-H358 (K-Ras G12C)): < 10 nM
IC50 (KRAS G12D): 10 to 100 nM
IC50 (KRAS G13C): < 10 nM
IC50 (KRAS G13D): 10 to 100 nM
IC50 (KRAS G12S): 10 to 100 nM
IC50 (AsPC-1 (K-Ras G12D)): 100 to 1000 nM

Structure (SMILES): CCn1c(-c2cccnc2[C@H](C)OC)c2c3cc(ccc31)-c1cc(O)cc(c1)C[C@H](NC(=O)[C@H](C(C)C)N(C)C(=O)CN(C)C(=O)[C@H]1CN1)C(=O)N1CCC[C@H](N1)C(=O)OCC(C)(C)C2 [42 B]
IC50 (KRAS G12V): 1000 to 10000 nM
IC50 (NCI-H358 (K-Ras G12C)): 10 to 100 nM
IC50 (KRAS G12D): 1000 to 10000 nM
IC50 (KRAS G13C): 100 to 1000 nM
IC50 (KRAS G13D): 1000 to 10000 nM
IC50 (KRAS G12S): 1000 to 10000 nM
IC50 (AsPC-1 (K-Ras G12D)): 1000 to 10000 nM

Structure (SMILES): C=CC(=O)N1CC(OC[C@H](C(=O)N[C@H]2C[C@H]3CN(CCO3)c3ccc4c(c3)c(c(-c3cccnc3[C@H](C)OC)n4CC(F)(F)F)CC(C)(C)COC(=O)[C@@H]3CCCN(N3)C2=O)C(C)C)C1
EC50 [1]: < 5000 nM

More lines, now with the values ahead:

IC50 [2]: 10 to 100 nM
IC50 [3]: 10 to 100 nM
Structure (SMILES): CCn1c(-c2cnccc2COC)c2c3cc(ccc31)-c1cc(O)cc(c1)C[C@H](NC(=O)[C@H](C(C)C)N(C)C(=O)[C@H]1CCN(C(=O)/C=C/CN(C)C)C1)C(=O)N1CCC[C@H](N1)C(=O)OCC(C)(C)C2

IC50 [4]: 100 to 1000 nM
Structure (SMILES): C=CC(=O)N1CC[C@H](C(=O)N(C)[C@H](C(=O)N[C@H]2Cc3cc(O)cc(c3)-c3ccc4c(c3)c(c(-c3ccc5c(c3)OCCN5C)n4CC)CC(C)(C)COC(=O)[C@@H]3CCCN(N3)C2=O)C(C)C)C1

IC50 [4]: 10 to 100 nM
Structure (SMILES): C=CC(=O)N1C[C@H](C)[C@H](C(=O)N(C)[C@H](C(=O)N[C@H]2Cc3cc(O)cc(c3)-c3ccc4c(c3)c(c(-c3cccnc3COC)n4CC)CC(C)(C)COC(=O)[C@@H]3CCCN(N3)C2=O)C2CCCC2)C1

IC50 [4]: 10 to 100 nM
Structure (SMILES): C=CC(=O)N1CC[C@H](C(=O)N(C)[C@H](C(=O)N[C@H]2Cc3cc(O)cc(c3)-c3ccc4c(c3)c(c(-c3ncccc3COC)n4CC)CC(C)(C)COC(=O)[C@@H]3CCCN(N3)C2=O)C(C)C)C1 [A016]

IC50 [4]: < 10 nM
IC50 [5]: < 10 nM
Structure (SMILES): CCn1c(-c2cccnc2COC)c2c3cc(ccc31)-c1cc(O)cc(c1)C[C@H](NC(=O)[C@H](C(C)C)N(C)C(=O)[C@H]1CCN(C(=O)C#CCN(C)C)C1)C(=O)N1CCC[C@H](N1)C(=O)OCC(C)(C)C2

IC50 [4]: 10 to 100 nM
Structure (SMILES): C=CC(=O)N1CC[C@H](C(=O)N(C)[C@H](C(=O)N[C@H]2Cc3cc(O)cc(c3)-c3ccc4c(c3)c(c(-c3ncccc3CN(C)C)n4CC)CC(C)(C)COC(=O)[C@@H]3CCCN(N3)C2=O)C(C)C)C1

IC50 [4]: 100 to 1000 nM
Structure (SMILES): C=CC(=O)N1CC[C@H](C(=O)N(C)[C@H](C(=O)N[C@H]2Cc3cc(O)cc(c3)-c3ccc4c(c3)c(c(-c3cncc(C#N)c3)n4CC)CC(C)(C)COC(=O)[C@@H]3CCCN(N3)C2=O)C(C)C)C1
